# CycPeptMPDB entries from one study

Collected by the curators of CycPeptMPDB (Li et al. 2023) from Townsend et al. 2020, doi:10.26434/chemrxiv.13335941.v1.

PAMPA is the parallel artificial membrane permeability assay, which has no cells and reads passive diffusion.
Values are log10 P with P in cm/s, so -5 is more permeable than -7.

CC(C)C[C@@H]1C(=O)N[C@H](CC(C)C)C(=O)N2CCC[C@@H]2C(=O)N[C@H](CC(C)C)C(=O)N[C@@H](Cc2ccccc2)C(=O)N2CCC[C@@H]2C(=O)N(C)[C@H](C)C(=O)N1C has PAMPA -6.22 (log10 cm/s). The entry for CC(C)C[C@@H]1C(=O)N[C@@H](Cc2ccccc2)CC(=O)N2CCC[C@@H]2C(=O)N(C)[C@@H](CC(C)C)C(=O)N[C@@H](Cc2ccccc2)C(=O)N2CCC[C@@H]2C(=O)N[C@@H](C)C(=O)N1C lists PAMPA -5.79 (log10 cm/s). CC(C)C[C@@H]1NC(=O)[C@@H](C)NC(=O)[C@H](Cc2ccccc2)NC(=O)[C@@H](CC(C)C)NC(=O)[C@@H]2CCCN2C(=O)[C@H](CC(C)C)N(C)C1=O is reported with PAMPA -7.12 (log10 cm/s). CC(C)C[C@@H]1C(=O)N(C)[C@@H](CC(C)C)C(=O)N2CCC[C@@H]2C(=O)N(C)[C@@H](CC(C)C)C(=O)N[C@@H](Cc2ccccc2)C(=O)N2CCC[C@H]2C(=O)N[C@H](C)C(=O)N1C has PAMPA -5.56 (log10 cm/s). CC(C)C[C@@H]1NC(=O)[C@@H](CC(C)C)NC(=O)[C@@H](C)N(C)C(=O)[C@H](Cc2ccccc2)NC(=O)[C@H](CC(C)C)N(C)C(=O)[C@H]2CCCN2C1=O is reported with PAMPA -4.96 (log10 cm/s). For CC(C)C[C@H]1NC(=O)[C@@H]2CCCN2C(=O)[C@@H](CC(C)C)NC(=O)CN(Cc2ccccc2)C(=O)C[C@H](Cc2ccccc2)NC(=O)[C@H]2CCCN2C(=O)[C@H](Cc2ccccc2)NC1=O the data give PAMPA -5.75 (log10 cm/s).

For CC(C)C[C@@H]1NC(=O)[C@H](CC(C)C)N(C)C(=O)[C@@H](C)N(C)C(=O)[C@H]2CCCN2C(=O)[C@H](Cc2ccccc2)NC(=O)[C@@H](CC(C)C)N(C)C(=O)[C@H]2CCCN2C1=O the data give PAMPA -5.46 (log10 cm/s). The entry for CCCN1CC(=O)N(C)[C@H](CC(C)C)C(=O)N(Cc2ccccc2)CC(=O)N2CCC[C@H]2C(=O)N(C)[C@@H](CC(C)C)C(=O)N[C@@H](Cc2ccccc2)C1=O lists PAMPA -5.14 (log10 cm/s). CC(C)C[C@@H]1NC(=O)CN(Cc2ccccc2)C(=O)[C@H](C)N(C)C(=O)[C@H]2CCCN2C(=O)[C@H](Cc2ccccc2)NC(=O)CN(Cc2ccccc2)C(=O)[C@H]2CCCN2C1=O is reported with PAMPA -6.05 (log10 cm/s). Listed for CC(C)C[C@@H]1NC(=O)[C@@H](C)NC(=O)[C@H](Cc2ccccc2)NC(=O)[C@@H](CC(C)C)N(C)C(=O)[C@H]2CCCN2C(=O)[C@H](CC(C)C)NC1=O: PAMPA -5.20 (log10 cm/s). For CC(C)C[C@@H]1NC(=O)[C@@H]2CCCN2C(=O)C[C@H](Cc2ccccc2)NC(=O)CN(Cc2ccccc2)C(=O)C[C@H](Cc2ccccc2)NC(=O)[C@H]2CCCN2C(=O)[C@H](Cc2ccccc2)NC1=O the data give PAMPA -6.29 (log10 cm/s). CCCN1CC(=O)N[C@@H](CC(C)C)C(=O)N(Cc2ccccc2)CC(=O)N2CCC[C@@H]2C(=O)N(C)[C@@H](CC(C)C)C(=O)N[C@@H](Cc2ccccc2)C(=O)N2CCC[C@H]2C1=O has PAMPA -5.56 (log10 cm/s).

Listed for CC(C)C[C@@H]1C(=O)N[C@@H](Cc2ccccc2)C(=O)N[C@H](C)C(=O)N(C)[C@H](CC(C)C)C(=O)N(Cc2ccccc2)CC(=O)N2CCC[C@@H]2C(=O)N1C: PAMPA -5.69 (log10 cm/s). For CC(C)C[C@@H]1C(=O)N[C@@H](Cc2ccccc2)C(=O)N[C@@H](C)C(=O)N[C@H](CC(C)C)C(=O)N[C@H](CC(C)C)C(=O)N2CCC[C@H]2C(=O)N1C the data give PAMPA -6.11 (log10 cm/s). Listed for CCCN1CC(=O)N[C@@H](CC(C)C)C(=O)N[C@H](CC(C)C)C(=O)N2CCC[C@@H]2C(=O)N[C@H](CC(C)C)C(=O)N[C@@H](Cc2ccccc2)C1=O: PAMPA -6.04 (log10 cm/s). The entry for CC(C)C[C@@H]1NC(=O)[C@@H](CC(C)C)NC(=O)C[C@H](Cc2ccccc2)NC(=O)[C@H](Cc2ccccc2)NC(=O)[C@@H](CC(C)C)NC(=O)[C@@H]2CCCN2C1=O lists PAMPA -5.92 (log10 cm/s). The entry for CC(C)C[C@@H]1NC(=O)[C@@H](CC(C)C)N(C)C(=O)[C@@H](C)NC(=O)[C@H](Cc2ccccc2)NC(=O)CN(Cc2ccccc2)C(=O)[C@H]2CCCN2C1=O lists PAMPA -5.18 (log10 cm/s). Listed for CCCN1CC(=O)N(C)[C@@H](CC(C)C)C(=O)N(C)[C@H](CC(C)C)C(=O)N2CCC[C@H]2C(=O)N(C)[C@H](CC(C)C)C(=O)N[C@@H](Cc2ccccc2)C(=O)N2CCC[C@@H]2C1=O: PAMPA -4.78 (log10 cm/s).

CCCN1CC(=O)N(C)[C@H](CC(C)C)C(=O)N(C)[C@@H](CC(C)C)C(=O)N2CCC[C@H]2C(=O)N[C@@H](CC(C)C)C(=O)N[C@@H](Cc2ccccc2)C(=O)N2CCC[C@H]2C1=O has PAMPA -6.22 (log10 cm/s). For CC(C)C[C@H]1C(=O)N(Cc2ccccc2)CC(=O)N2CCC[C@H]2C(=O)N(C)[C@@H](CC(C)C)C(=O)N[C@@H](Cc2ccccc2)C(=O)N[C@H](C)C(=O)N1C the data give PAMPA -5.35 (log10 cm/s). For CC(C)C[C@H]1C(=O)N[C@@H](Cc2ccccc2)C(=O)N2CCC[C@H]2C(=O)N(C)[C@H](C)C(=O)N(Cc2ccccc2)CC(=O)N[C@@H](Cc2ccccc2)CC(=O)N2CCC[C@H]2C(=O)N1C the data give PAMPA -5.82 (log10 cm/s).

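The data file gives no further conditions (lipid, pH, time, direction or concentration), and values from different papers need not be comparable. The list need not hold all peptides of the study. Peptides that the database sets to -10, its floor, are left out.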